Earlier results as cited in paper PMC6746264, “Novel tyrosinase inhibitory peptide with free radical scavenging ability” (Journal of Enzyme Inhibition and Medicinal Chemistry, 2019).

Test system: hepatocytes and melanocytes
Conditions: metabolite of hydroquinone; cited from earlier work
Source text: However, the adverse side effects associated with their use have led to restrictions in their applications.

In the case of `O=C1C=CC(=O)C=C1` [benzoquinone], the cytotoxicity is given as “cytotoxic to hepatocytes and melanocytes”.
